# Data published in publication PMC5851014, “Mechanistic Studies of 1-Deoxy-D-Xylulose-5-Phosphate Synthase from Deinococcus radiodurans” (Biochemistry & molecular biology journal, 2018).
# Like-named read-outs stand apart in the source and are kept apart here.
# Legend:
# [1] = target: T1, 1-deoxy-D-xylulose-5-phosphate synthase (DXPS) (Deinococcus radiodurans, UniProt Q9RUB5); assay: biochemical
# T1 construct: gene dxs
# [2] = target: T1, 1-deoxy-D-xylulose-5-phosphate synthase (DXPS); assay: biochemical; remark: listed apart in the source
# purified protein [3] = substrate: CC(=O)C(=O)O; assay: purified protein; conditions: thiamine pyrophosphate (TPP) and divalent metal (Mg(II); MnCl2 in assay) His-304, near the thiazolium C2 atom, likely contributes to pyruvate binding
# purified protein [4] = substrate: O=CC(O)COP(=O)(O)O; assay: purified protein; conditions: thiamine pyrophosphate (TPP) and divalent metal (Mg(II); MnCl2 in assay) pocket composed of amino acids from domains I and II; Arg-423 hydrogen bonds to the phosphate of GAP
molecule,measurement,setting,value
"O=C(O)C(=O)CF [F-Pyr, β-fluoropyruvate]",Ki,[1],3.3 ± 0.4 µM
"CC(=O)[C@@H](O)[C@H](O)COP(=O)(O)O [DXP, 1-deoxy-D-xylulose-5-phosphate]",Ki,[2],130 ± 32 µM
1-deoxy-D-xylulose-5-phosphate synthase (DXPS) (Deinococcus radiodurans R1 = ATCC 13939 = DSM 20539) (protein) MNELPGTSDTPLLDQIHGPKDLKRLSREQLPALTEELRGEIVRVCSRGGLHLASSLGAVDIITALHYVLDSPRDRILFDVGHQAYAHKILTGRRDQMADIKKEGGISGFTKVSESEHDAITVGHASTSLANALGMALARDAQGKDFHVAAVIGDGSLTGGMALAALNTIGDMGRKMLIVLNDNEMSISENVGAMNKFMRGLQVQKWFQEGEGAGKKAVEAVSKPLADFMSRAKNSTRHFFDPASVNPFAAMGVRYVGPVDGHNVQELVWLLERLVDLDGPTILHIVTTKGKGLSYAEADPIYWHGPAKFDPATGEYVPSSAYSWSAAFGEAVTEWAKTDPRTFVVTPAMREGSGLVEFSRVHPHRYLDVGIAEEVAVTTAAGMALQGMRPVVAIYSTFLQRAYDQVLHDVAIEHLNVTFCIDRAGIVGADGATHNGVFDLSFLRSIPGVRIGLPKDAAELRGMLKYAQTHDGPFAIRYPRGNTAQVPAGTWPDLKWGEWERLKGGDDVVILAGGKALDYALKAAEDLPGVGVVNARFVKPLDEEMLREVGGRARALITVEDNTVVGGFGGAVLEALNSMNLHPTVRVLGIPDEFQEHATAESVHARAGIDAPAIRTVLAELGVDVPIEV,Km,purified protein [3],280 ± 30 µM
same,kcat,purified protein [3],7.4 s⁻¹
same,kcat/Km,purified protein [3],26000 M⁻¹ s⁻¹
same,Km,purified protein [4],50 ± 10 µM
same,kcat,purified protein [4],7.9 s⁻¹
same,kcat/Km,purified protein [4],150000 M⁻¹ s⁻¹
